According to paper PMC5040251, “The Structure of Treponema pallidum Tp0751 (Pallilysin) Reveals a Non-canonical Lipocalin Fold That Mediates Adhesion to Extracellular Matrix Components and Interactions with Host Cells” (PLoS Pathogens, 2016):

Biological target: fibronectin
Assay: Dose-dependent binding assay to immobilized fibronectin
Settings: plate binding to immobilized human plasma fibronectin; peptides serially diluted 1:2 from 40 to 0.625; absorbance 600 nm, three wells, representative of two independent experiments; non-linear regression, GraphPad Prism; read-out: Apparent Kd (Fn)
Experimental: Fig 3 Tp0751 lipocalin derived peptides directly bind host proteins. (A) Thirteen overlapping Tp0751 synthetic 24-mer peptides were evaluated for binding to immobilized fibrinogen, fibronectin, collagen type I, and collagen type IV. Average absorbance readings (600 nm) from three wells are presented with bars indicating standard error and the results are representative of two independent experiments. […] Average absorbance readings (600 nm) from three wells are presented with bars indicating standard error and the results are representative of two independent experiments. […] The strand colored in cyan reflects the overlap of p10 and p11. […]
To test for binding of synthetic Tp0751 peptides p1-p13, p1scr, p6scr, p10scr1, and p10scr2 to the host proteins fibrinogen, fibronectin, laminin, collagen type I, and collagen type IV, initial binding assays were performed as described previously. […] Average absorbance readings (600 nm) from three wells are presented with bars indicating standard error and the results are representative of two independent experiments. Plates were read at 600 nm with a BioTek enzyme-linked immunosorbent assay plate reader (Fisher Scientific, Ottawa, ON). […] Non-linear regression curves were fitted and apparent dissociation constants (K d) were calculated using GraphPad Prism data analysis software (San Diego, CA).

## CC[C@H](C)[C@H](NC(=O)[C@H](CCCNC(=N)N)NC(=O)[C@@H](NC(=O)[C@H](CO)NC(=O)[C@H](CC(C)C)NC(=O)[C@H](CCCNC(=N)N)NC(=O)[C@@H](NC(=O)[C@@H](NC(=O)[C@H](CO)NC(=O)[C@@H](NC(=O)[C@H](CCCNC(=N)N)NC(=O)[C@H](Cc1ccccc1)NC(=O)[C@H](CC(C)C)NC(=O)[C@@H](NC(=O)[C@@H](NC(=O)[C@H](CCCNC(=N)N)NC(=O)[C@H](CO)NC(=O)[C@H](CCCCN)NC(=O)[C@H](CC(N)=O)NC(=O)[C@H](Cc1ccccc1)NC(=O)[C@H](CCC(=O)O)NC(=O)[C@H](CCCNC(=N)N)NC(=O)[C@H](C)NC(=O)[C@@H](NC(=O)[C@H](Cc1c[nH]cn1)NC(=O)[C@H](Cc1c[nH]cn1)NC(=O)[C@H](Cc1c[nH]cn1)NC(=O)[C@H](Cc1c[nH]cn1)NC(=O)[C@H](Cc1c[nH]cn1)NC(=O)[C@@H](N)Cc1c[nH]cn1)C(C)C)[C@@H](C)O)[C@@H](C)CC)[C@@H](C)O)C(C)C)[C@@H](C)O)[C@@H](C)O)C(=O)O [p10scr2]
  Kd: 7.9 ± 0.7 µM
